System: bEnd.3 murine endothelial cells (bEnd.3/C6 co-cultures)
Assay: Transport through in vitro reconstituted blood–brain barrier (two-compartment chamber)
Format: in vitro ADME, mouse
Settings: bEnd.3/C6 model, donor basal to acceptor apical compartment
Experimental: An in vitro model of the blood–brain barrier was reconstituted with bEnd.3 murine endothelial cells obtained from the American Type Culture Collection (ATCC, Manassas, VA, USA) ref. bEnd.3 [BEND3] (ATCC CRL-2299). These cells were cultured in chambers with two compartments separated by a filter with a porosity of 0.4 µm (Corning-Transwell, Dominique Dutscher, Bernolsheim, France). The cells were seeded at a density of 50,000 cells per individual filter and cultured in a growth medium containing 10% fetal calf serum. After an initial spreading step, the bEnd.3 cells colonized the entire surface available on the filter, thus reconstituting a functional endothelium. At this stage, the cells established tight junctions preventing the passage of molecules and ions. In order to improve the differentiation of bEnd.3 cells, we also set up two coculture systems: [bEnd.3 + astrocytes (CTX cells)] and [bEnd.3 + glioma (C6 cells)]. […] The impermeability of each of these cellular barriers was assessed by transendothelial resistance measurements with a Voltmeter-Ohmmeter Millicell-ERS (Merck-Millipore, Burlington, MA, USA). The tested peptides (or bovine serum albumin) were injected in the lower compartment and their concentration in the upper compartment was analyzed as a function of time by spectrophotometry. […]

## bovine serum albumin [BSA, reference compound]
  Transendothelial transport through the blood–brain barrier: did not cross the blood–brain barrier at all
